Assay results from US7445897B2, “Sequence variants of multi-drug resistance genes, MDR1 and MRP1, and methods for assessment of drug penetration and disposition” (University of Washington, priority 2004, dated 2008).

Tested on: P-gp (MDR11199, G1199A) in recombinant LLC-PK1 cells
Settings: without GF120918

With `CC(C)CN(C[C@@H](O)[C@H](Cc1ccccc1)NC(=O)O[C@H]1CCOC1)S(=O)(=O)c1ccc(N)cc1` [amprenavir] the “decrease in apical-to-basolateral flux in MDR11199 cells compared to MDR1wt cells” value was 1.7 fold.
